The values that follow are results of earlier work, collected in US20230162361A1, “ASSESSMENT OF SKIN TOXICITY IN AN IN VITRO TISSUE SAMPLES USING DEEP LEARNING” (Genentech, Inc., priority 2020, published 2023).

For data set [1] the following is noted: clinical exposure, cetuximab label; cited from earlier work.
The subject of another data set is skin. The following applies: human, in vivo; cited from earlier work.

Regarding Cetuximab, in data set [1], the Cmax_free was 235 µg/mL. The Skin tox. result with skin was “Yes”.
